Measured values published in ChEMBL document CHEMBL2176996, “Synthesis and structure-affinity relationships of selective high-affinity 5-HT(4) receptor antagonists: application to the design of new potential single photon emission computed tomography tracers” (J Med Chem, 2012).

Protein sequences, listed by entry. Tags and fused reporters are not part of them. Lines headed by an entry give the natural chain unless they say otherwise; changes in a name come on top.
UniProt O70528: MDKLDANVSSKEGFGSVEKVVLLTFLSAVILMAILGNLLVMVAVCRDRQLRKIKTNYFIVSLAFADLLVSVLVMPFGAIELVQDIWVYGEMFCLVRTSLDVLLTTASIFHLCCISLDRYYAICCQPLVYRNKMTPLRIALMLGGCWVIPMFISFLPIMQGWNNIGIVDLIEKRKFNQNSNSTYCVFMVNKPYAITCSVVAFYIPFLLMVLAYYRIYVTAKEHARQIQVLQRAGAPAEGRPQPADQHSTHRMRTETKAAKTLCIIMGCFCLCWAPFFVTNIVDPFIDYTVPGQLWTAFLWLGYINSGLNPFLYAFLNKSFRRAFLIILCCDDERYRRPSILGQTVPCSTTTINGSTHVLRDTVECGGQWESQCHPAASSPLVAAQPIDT
UniProt P28223, whole entry: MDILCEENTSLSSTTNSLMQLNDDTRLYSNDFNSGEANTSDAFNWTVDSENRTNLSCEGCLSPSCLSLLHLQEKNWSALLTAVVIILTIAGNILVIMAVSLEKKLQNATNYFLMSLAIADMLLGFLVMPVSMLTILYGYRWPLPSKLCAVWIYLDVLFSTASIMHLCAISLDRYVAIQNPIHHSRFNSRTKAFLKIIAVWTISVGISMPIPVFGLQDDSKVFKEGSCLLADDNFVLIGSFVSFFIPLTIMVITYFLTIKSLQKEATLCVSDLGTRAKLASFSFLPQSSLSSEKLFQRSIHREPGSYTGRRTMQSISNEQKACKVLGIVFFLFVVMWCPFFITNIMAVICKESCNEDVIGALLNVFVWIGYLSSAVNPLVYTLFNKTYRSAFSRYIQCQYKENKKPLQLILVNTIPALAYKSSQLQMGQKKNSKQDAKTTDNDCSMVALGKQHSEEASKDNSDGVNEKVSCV
UniProt P28566: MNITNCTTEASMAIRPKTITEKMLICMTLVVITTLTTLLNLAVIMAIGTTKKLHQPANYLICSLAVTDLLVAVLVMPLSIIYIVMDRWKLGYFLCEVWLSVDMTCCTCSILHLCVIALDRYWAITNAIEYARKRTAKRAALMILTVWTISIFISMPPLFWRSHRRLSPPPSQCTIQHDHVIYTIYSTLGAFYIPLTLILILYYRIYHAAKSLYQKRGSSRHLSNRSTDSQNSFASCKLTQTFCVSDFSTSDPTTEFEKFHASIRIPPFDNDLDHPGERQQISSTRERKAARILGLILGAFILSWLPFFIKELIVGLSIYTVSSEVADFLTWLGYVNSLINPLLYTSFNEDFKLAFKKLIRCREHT
UniProt P41595, whole entry: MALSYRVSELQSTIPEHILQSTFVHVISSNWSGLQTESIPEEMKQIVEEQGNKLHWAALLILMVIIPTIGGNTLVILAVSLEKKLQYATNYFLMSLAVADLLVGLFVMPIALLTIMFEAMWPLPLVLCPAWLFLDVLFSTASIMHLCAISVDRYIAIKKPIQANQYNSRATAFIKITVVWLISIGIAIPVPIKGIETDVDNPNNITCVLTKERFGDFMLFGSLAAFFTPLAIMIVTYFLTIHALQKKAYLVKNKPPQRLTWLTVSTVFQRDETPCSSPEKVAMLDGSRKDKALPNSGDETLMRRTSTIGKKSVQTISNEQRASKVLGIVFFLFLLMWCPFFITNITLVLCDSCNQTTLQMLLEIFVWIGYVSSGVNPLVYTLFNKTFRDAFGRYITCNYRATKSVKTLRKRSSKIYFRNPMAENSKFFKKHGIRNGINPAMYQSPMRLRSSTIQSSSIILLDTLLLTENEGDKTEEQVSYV

Experiments:
[1] = molecular target: 5-hydroxytryptamine receptor 4 (Cavia porcellus) (UniProt O70528); assay: Displacement of [3H]GR113808 from 5HT4R in guinea pig striatal membranes at 1 uM; type: cell membranes; settings: Striatum, Membrane
Method in brief: (§1)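 Native 5-HT4R in male guinea pig striatal membranes (HEPES 50 mM pH 7.4); 600 µg membrane incubated in duplicate with [3H]GR 113808 at 0.1 nM final, 37 °C, 30 min; filtration on PEI-soaked GF/B filters, cold buffer washes.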

[2] = molecular target: 5-hydroxytryptamine receptor 4 (Cavia porcellus) (UniProt O70528); assay: Displacement of [3H]GR113808 from 5HT4R in guinea pig striatal membranes at 10 nM; type: cell membranes; settings: Striatum, Membrane; method in brief: as §1
[3] = molecular target: 5-hydroxytryptamine receptor 2A (Homo sapiens, UniProt P28223); assay: Binding affinity to human 5HT2A by Cerep protocol based assay
[4] = molecular target: 5-hydroxytryptamine receptor 1E (Homo sapiens, UniProt P28566); assay: Binding affinity to human 5HT1E by Cerep protocol based assay
[5] = molecular target: 5-hydroxytryptamine receptor 2B (Homo sapiens, UniProt P41595); assay: Binding affinity to human 5HT2B by Cerep protocol based assay

| Compound | inhibition [1] | inhibition [2] | Ki [3] | Ki [4] | Ki [5] |
| --- | --- | --- | --- | --- | --- |
| CCCN1CCC(COc2nc3ccc(OC)cc3c3ccccc23)CC1 | 83% | 9% |  |  |  |
| CCCN1CCC(COc2nc3ccccc3c3cccc(F)c23)CC1 | 100% | 0% |  |  |  |
| CCCN1CCC(COc2nc3ccc(C)cc3c3ccccc23)CC1 | 88% | 7% |  |  |  |
| CCCN1CCC(COc2nc3cc(C)ccc3c3ccccc23)CC1 | 65% | 30% |  |  |  |
| CCCN1CCC(COc2nc3c(F)cccc3c3ccccc23)CC1 |  |  | > 10 µM | > 10 µM |  |
| CCCN1CCC(COc2nc3ccccc3c3ccccc23)CC1 | 100% | 11% |  |  |  |
| CCCN1CCC(COc2nc3c(I)cccc3c3ncccc23)CC1 |  |  |  |  | > 10 µM |
| CCCN1CCC(COc2nc3c(Cl)cccc3c3ccccc23)CC1 |  |  |  | > 10 µM |  |
| CCCN1CCC(COc2nc3cc(F)ccc3c3ccccc23)CC1 | 100% | 14% |  |  |  |
| CCCN1CCC(COc2nc3ccccc3c3cc(F)ccc23)CC1 | 84% | 0% |  |  |  |
